# Reference: article PMC3688787
# B1: von Hippel-Lindau tumor suppressor protein (pVHL), wild type, 19 kDa form, P40337 Y98H (protein)
# chain: MEAGRPRPVLRSVNSREPSQVIFCNRSPRVVLPVWLNFDGEPQPHPTLPPGTGRRIHSYRGHLWLFRDAGTHDGLLVNQTELFVPSLNVDGQPIFANITLPVYTLKERCLQVVRSLVKPENYRRLDIVRSLYEDLEDHPNVQKDLERLTQERIAHQRMGD
# Target: T1, Hyp402-ODD target peptide of HIF-1α
# T1 chain: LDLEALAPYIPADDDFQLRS
# Assay: TAMRA fluorescence binding assay (fluorescence at 580 nm)
# Details: chain shown with the change, pVHL protein concentration 500 nM, value read at the highest peptide concentration point (x est. 5e5 on the printed axis, plateau), read off a plot
binder,measurement,setting,value
B1,response (FU (arbitrary units)),"in the presence of Arginine, parent: est. 2.4",0.06
same,response (FU (arbitrary units)),"no Arginine, parent: est. 2.2",0.02
